Laboratory results published in patent publication US20020039725A1, “Fish hatching method and apparatus” (published 2002).

What was measured:
Selenastrum capricornium = details: data from [13], median values of literature citations; cited from earlier work
Daphnia magna = details: data from [13], median values of literature citations; cited from earlier work
Pimephales promelas = details: cited from earlier work
Nothobranchius guentheri = test: Rapid killifish 24 hour acute toxicity test with newly hatched fry

For `Cc1c([N+](=O)[O-])cc([N+](=O)[O-])cc1[N+](=O)[O-]`, the “S. capricornium 96-h EC50” value (Selenastrum capricornium) is given as 2.0 mg/L, the “D. magna 48-h LC50” value (Daphnia magna) is given as 12 mg/L and the “P. promelas 96-hr LC50” value (Pimephales promelas; Example 4 table, mean LC50 from Toussaint et al., 1995) is given as 3.1 mg/L. For the same compound, the “P. promelas 96-h LC50” value (Pimephales promelas; data from [13], median values of literature citations) was 3.1 mg/L, the “N. guentheri 24-HR LC50” value (Nothobranchius guentheri; Example 4 table, trimmed Spearman-Karber) was 6.33 mg/L and the “N. guentheri 24-HR EC50” value (Nothobranchius guentheri; Example 4 table, trimmed Spearman-Karber (moving average for TNT, SDS)) was 3.34^c mg/L. The “N. guentheri 24-h EC50” value (Nothobranchius guentheri; median effective concentration (stress), 24 hours, 25° C., trimmed Spearman-Karber unless noted (moving-average for 2,4-D, SDS)) was 3.4 mg/L and the “N. guentheri 24-h LC50” value (Nothobranchius guentheri; median lethal concentration (death), 24 hours, fry 24 h post hatch, 25° C., trimmed Spearman-Karber unless noted) was 6.3 mg/L.

Some compounds may have been tested in ways that are not shown here. Marks after values point to notes of the source that are not given here.
